# Patent US11091428B2 (HAPLOGEN GMBH, priority 2016, dated 2021)
# The chains behind the UniProt entries cited, without tags or fusion partners.
# UniProt P53816, whole entry: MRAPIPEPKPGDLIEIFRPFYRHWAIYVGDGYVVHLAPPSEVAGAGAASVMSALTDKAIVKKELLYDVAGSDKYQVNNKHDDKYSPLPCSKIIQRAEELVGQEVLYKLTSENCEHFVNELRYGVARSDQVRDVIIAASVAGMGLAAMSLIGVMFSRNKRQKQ
# Target: PLA2G16 (Homo sapiens, UniProt P53816)
# Assay: Enzyme activity assay for PLA2G16 (Red/Green BODIPY PC-A2 fluorescence)
# Settings: read-out: IC50 values of the compounds determined in the enzyme activity assay for PLA2G16; His-tagged PLA2G16, 4 min pre-incubation, 2 nM to 50 μM
# Source text: A cDNA for PLA2G16(NM_007069) was custom-synthesized by Genscript (Piscataway, USA) and inserted into a pET-based bacterial expression vector [Moffatt, B. A. and Studier, F. W. (1986) J. Mol. Biol. 189, 113-130; Rosenberg, A. H., Lade, B. N., Chui, D., Lin, S., Dunn, J. J., and Studier, F. W. (1987) Gene 56, 125-135], enabling the expression of N-terminally Hexa-His-tagged PLA2G16. E. coli BL21(DE3) (Agilent) were transformed with pET-His-PLA2G16according to the manufacturer's instructions and plated on Carbenicillin-containing agar plates (final concentration: 100 μg/mL). […] Purified fractions were analyzed by SDS-PAGE followed by Coomassie staining to assess the purity.
# Activity of the protein was assessed as follows: Red/Green BODIPY® PC-A2 (Invitrogen, 1 mM in DMSO) was mixed with equal volumes of 1,2-Dioleoyl-sn-glycero-3-phosphocholine (DOPC; Sigma Aldrich, 10 mM in Ethanol) and 1,2-Dioleoyl-sn-glycero-3-phospho-rac-(1-glycerol) (DOPG; Sigma Aldrich, 10 mM in Ethanol) and 0.5 volumes of Cholesterol (CHOL; Sigma Aldrich, 10 mM in Ethanol) and vortexed for 5 s. […]
# In order to evaluate their inhibitory potential, compounds were dissolved at 10 mM concentration in DMSO and directly spotted into assay plates (Corning, Cat. No. 3576) using acoustic liquid transfer (Labcyte Echo 525). […] The relative increase of fluorescence over time is referred to as the enzyme activity. […]
structure (smiles),measurement,value
CC(C)C(=O)NCCCNC(=O)C(=O)[C@H]1CCC(=O)N1Cc1ccccc1,IC50,< 1000 nM
